Data on 13 compounds can be found in patent US8697888B2, “Substituted (1-(methylsulfonyl)azetidin-3-yl)(heterocycloalkyl)methanone analogs as antagonists of muscarinic acetylcholine M1 receptors” (Vanderbilt University, priority 2012, dated 2014).

The structures appear in SMILES notation.

For the test, the target named is mAChR M1 (UniProt P11229). Briefly: mAChR M1 cell-based functional assay (calcium mobilization, antagonist mode). The conditions noted are these: concentration of antagonist decreasing calcium flux by 50%; EC80 acetylcholine response; CHO-K1 cells expressing mAChR M1; read-out: Potency (IC50). From the text: Chinese hamster ovary (CHO-K1) cells stably expressing rat (r)M1 were purchased from the American Type Culture Collection and cultured according to their indicated protocol. CHO cells stably expressing human (h)M2, hM3, and hM5 were described previously (Levey, et al., 1991); hM1 and hM4 cDNAs were purchased from Missouri S&T cDNA Resource; rM4 cDNA was provided by T. I. Bonner (National Institutes of Health, Bethesda, Md.). rM2 and rM3 were cloned from a rat brain cDNA library and sequence verified. hM1, rM2, rM3, hM4, and rM4 cDNAs were used to stably transfect CHO-K1 cells purchased from the American Type Culture Collection using Lipofectamine-2000. To make stable rM2, hM2, rM3, hM4, and rM4 cell lines for use in calcium mobilization assays, these cells also were stably transfected with a chimeric G-protein (Gqi5) (provided by B. R. Conklin, University of California, San Francisco) using Lipofectamine 2000. rM1, hM1, rM3, hM3, rM5, and hM5 cells were grown in Ham's F-12 medium containing 10% heat-inactivated fetal bovine serum (FBS), 20 mM HEPES, and 50 μg/mL G418 sulfate. rM2-Gqi5, hM2-Gqi5, and hM4-Gqi5 cells were grown in the same medium also containing 500 μg/mL Hygromycin B. Stable rM4-Gqi5 cells were grown in DMEM containing 10% heat-inactivated FBS, 20 mM HEPES, 400 μg/mL G418 sulfate, and […].
For high throughput measurement of antagonist inhibited increases in intracellular calcium, CHO-K1 cells stably expressing muscarinic receptors were plated in growth medium lacking G418 and hygromycin at 15,000 cells/20 μL/well in Greiner 384-well black-walled, tissue culture (TC)-treated, clear-bottom plates (VWR). Cells were incubated overnight at 37° C. and 5% CO2. The next day, cells were washed using an ELX 405 (BioTek) with four washes (80 μL) of assay buffer then aspirated to 20 μL. Next, 20 μL of 16 μM Fluo-4/acetoxymethyl ester (Invitrogen, Carlsbad, Calif.) prepared as a 2.3 mM stock in DMSO and mixed in a 1:1 ratio with 10% (w/v) Pluronic F-127 and diluted in assay buffer was added to the wells and the cell plates were incubated for 50 min at 37° C. and 5% CO2. Dye was removed by washing with the ELX 405 (four 80 μL washes of assay buffer) then aspirated to 20 μL. Compound master plates were formatted in an 11 point CRC format (1:3 dilutions) in 100% DMSO with a starting concentration of 10 mM using the BRAVO liquid handler (Agilent). Test compound CRCs were then transferred to daughter plates (240 nL) using the Echo acoustic plate reformatter (Labcyte, Sunnyvale, Calif.) and then diluted into assay buffer (40 μL) to a 2× stock using a Thermo Fisher Combi (Thermo Fisher Scientific, Waltham, Mass.).
Calcium flux was measured using the Functional Drug Screening System (FDSS) 6000 (Hamamatsu Corporation, Tokyo, Japan) as an increase in the fluorescent static ratio. Compounds were applied to cells (20 μL, 2×) using the automated system of the FDSS 6000 at 4 s into the 300 s protocol and the data were collected at 1 Hz. At 144 s into the 300 s protocol, 10 μL of an EC20 concentration of the muscarinic receptor agonist acetylcholine was added (5×), followed by the addition of 12 μL an EC80 concentration of acetylcholine at the 230 s time point (5×). Agonist activity was analyzed as a concentration-dependent increase in calcium mobilization upon compound addition. Positive allosteric modulator activity was analyzed as a concentration-dependent increase in the EC20 acetylcholine response. Antagonist activity was analyzed as a concentration-dependent decrease in the EC80 acetylcholine response. Concentration-response curves were generated using a four-parameter logistical equation in XLfit curve fitting software (IDBS, Bridgewater, N.J.) for Excel (Microsoft, Redmond, Wash.) or Prism (GraphPad Software, Inc., San Diego, Calif.).
The calcium mobilization assay was used to determine “potency”.
For the compound `Cc1cc2c(S(=O)(=O)N3CC(C(=O)N4CCN(c5ccncc5)CC4)C3)cccc2cn1` [B22], the IC50 came out at 0.91 µM.

With `Cc1cc(S(=O)(=O)N2CC(C(=O)N3CCN(c4ccncc4)CC3)C2)cnc1Cl` [B7], the IC50 amounted to 0.2 µM.

For `O=C(C1CN(S(=O)(=O)c2ccc3c(c2)OCO3)C1)N1CCN(c2ccncc2)CC1` [B9], the IC50 came out at 0.34 µM.

For the compound `O=C(C1CN(S(=O)(=O)c2cccc3c(Cl)nc(Cl)cc23)C1)N1CCN(c2ccncc2)CC1` [B30], the half-maximal inhibitory concentration (IC50) was 2.9 µM.

As to `O=C(C1CN(S(=O)(=O)c2cccc(Cl)c2)C1)N1CCN(c2ccncc2)CC1` [B36], the IC50 was greater than 10 µM.

For the compound `O=C(C1CN(S(=O)(=O)c2ccc3ncccc3c2)C1)N1CCN(c2ccncc2)CC1` [B15], the IC50 worked out at 0.55 µM.

On to `O=C(C1CN(S(=O)(=O)c2cccc3cnccc23)C1)N1CCN(c2ccncc2)CC1` [B1], for which the IC50 turned out to be 0.037 µM.

As for `Cc1cc2c(S(=O)(=O)N3CC(C(=O)N4CC5CN(c6ccncc6)CC5C4)C3)cccc2cn1` (stereo not shown) [B60], the IC50 is 1.2 µM.

Take `O=C(C1CN(S(=O)(=O)c2cccc3cnccc23)C1)N1CCN(c2ccncn2)CC1` [B20]: the IC50 came to 0.79 µM.

Consider `O=C(C1CN(S(=O)(=O)c2cccc(Cl)c2Cl)C1)N1CC2CN(c3ccncc3)CC2C1` (stereo not shown) [B58], for which the half-maximal inhibitory concentration (IC50) turned out to be 0.66 µM.

As to `O=C(C1CN(S(=O)(=O)c2cccc3nsnc23)C1)N1CC2CN(c3ccncc3)CC2C1` (stereo not shown) [B53], the IC50 came out at 2.5 µM.

For `O=C(C1CN(S(=O)(=O)c2cccc3ncccc23)C1)N1CCN(c2ccncc2)CC1` [B26], the IC50 turned out to be 2 µM.

In the case of `O=C(C1CN(S(=O)(=O)c2cccc(Cl)c2F)C1)N1CCN(c2ccncc2)CC1` [B34], the IC50 was greater than 10 µM.
